Measured values published in US20160146786A1, “Method of monitoring cellular trafficking of peptides” (PHYLOGICA LIMITED, priority 2013, published 2016).

Experiment: CD spectrophotometry of FITC-labelled peptides
Type: physicochemical

Substance: Transportan [reference compound]
- CD spectral analysis, conformation (NaF Buffer pH 4.5): Weakly helical
- CD spectral analysis, conformation (SDS Micelles pH 4.5): Strong helix
- CD spectral analysis, conformation (SDS Micelles pH 7.2): Strong helix
